For this data set, the system named is soman-poisoning in rats. The experiment in a line: Protection of CPA injected 1 min after soman-poisoning in rats. The conditions noted are these: CPA 2 mg/kg i.m. alone, no soman, n = 2.

Molecules are shown by their SMILES.

As to `OC[C@H]1O[C@@H](n2cnc3c(NC4CCCC4)ncnc32)[C@H](O)[C@@H]1O`, the Symptoms entry was “no physical signs”.

Source of the values: patent US20020058669A1, “PROCESS FOR THE TREATMENT OF ORGANOPHOSPHATE POISONING” (published 2002).
